The values below are quoted from earlier work in US20170246129A1, “COMPOSITION USING GUANIDINE COMPOUND FOR SUPPRESSING TRANSFORMING GROWTH FACTOR (TGF)-beta” (Peking University Third Hospital, priority 2016, published 2017).

The conditions of this data set: in vivo; cited from earlier work.

Where a name gives a salt, the structure may show the parent alone.

With `CN(C)C(=N)N=C(N)N` [metformin, metformin hydrochloride], the excretion entry was “excreted unchanged in the urine” and the metabolism result is on record as “not metabolized”.
